Amino acid sequences for entries named in this document (tags omitted). Residues count along the entry.
UniProt Q15910, 2-746 limits assumed: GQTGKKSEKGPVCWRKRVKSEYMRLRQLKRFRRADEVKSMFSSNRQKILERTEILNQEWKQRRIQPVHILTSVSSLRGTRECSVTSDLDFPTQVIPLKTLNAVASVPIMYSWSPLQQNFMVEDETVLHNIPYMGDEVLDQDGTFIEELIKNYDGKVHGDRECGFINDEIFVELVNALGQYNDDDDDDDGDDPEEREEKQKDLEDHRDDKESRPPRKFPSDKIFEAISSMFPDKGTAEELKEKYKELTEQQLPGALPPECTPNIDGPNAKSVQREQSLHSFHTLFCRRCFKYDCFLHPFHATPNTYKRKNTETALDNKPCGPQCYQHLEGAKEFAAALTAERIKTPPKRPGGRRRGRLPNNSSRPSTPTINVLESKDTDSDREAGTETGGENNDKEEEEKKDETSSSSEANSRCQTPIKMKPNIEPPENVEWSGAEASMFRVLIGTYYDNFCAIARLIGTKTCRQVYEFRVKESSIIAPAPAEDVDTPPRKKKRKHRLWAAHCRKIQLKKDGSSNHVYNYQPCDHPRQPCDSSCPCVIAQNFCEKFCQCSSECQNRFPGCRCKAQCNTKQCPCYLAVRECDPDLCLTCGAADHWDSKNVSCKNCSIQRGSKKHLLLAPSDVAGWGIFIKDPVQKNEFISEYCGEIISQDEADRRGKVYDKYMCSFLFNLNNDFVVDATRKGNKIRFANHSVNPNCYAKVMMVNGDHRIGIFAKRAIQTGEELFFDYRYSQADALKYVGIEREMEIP
UniProt Q92800, 2-747 limits assumed: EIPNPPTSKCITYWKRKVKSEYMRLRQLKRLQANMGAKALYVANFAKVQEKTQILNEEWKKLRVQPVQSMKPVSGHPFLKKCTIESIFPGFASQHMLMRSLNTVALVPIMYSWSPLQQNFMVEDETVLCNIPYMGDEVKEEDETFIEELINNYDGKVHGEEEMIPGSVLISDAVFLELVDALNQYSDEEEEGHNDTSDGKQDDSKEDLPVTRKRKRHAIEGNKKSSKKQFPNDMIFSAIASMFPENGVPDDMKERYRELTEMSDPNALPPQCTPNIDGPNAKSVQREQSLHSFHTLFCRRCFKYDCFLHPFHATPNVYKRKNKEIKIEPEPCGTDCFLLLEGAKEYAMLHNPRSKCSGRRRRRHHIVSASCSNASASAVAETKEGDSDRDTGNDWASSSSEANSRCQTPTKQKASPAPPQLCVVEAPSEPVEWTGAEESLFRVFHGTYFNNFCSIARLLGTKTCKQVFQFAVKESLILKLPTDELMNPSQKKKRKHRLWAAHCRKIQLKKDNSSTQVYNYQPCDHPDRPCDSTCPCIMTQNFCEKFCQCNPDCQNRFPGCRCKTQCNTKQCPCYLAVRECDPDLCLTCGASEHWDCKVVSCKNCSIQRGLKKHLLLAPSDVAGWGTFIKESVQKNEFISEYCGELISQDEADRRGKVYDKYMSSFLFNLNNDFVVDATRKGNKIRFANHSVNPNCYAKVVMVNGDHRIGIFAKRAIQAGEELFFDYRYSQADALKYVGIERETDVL
UniProt O75530, 2-441 partner limits assumed: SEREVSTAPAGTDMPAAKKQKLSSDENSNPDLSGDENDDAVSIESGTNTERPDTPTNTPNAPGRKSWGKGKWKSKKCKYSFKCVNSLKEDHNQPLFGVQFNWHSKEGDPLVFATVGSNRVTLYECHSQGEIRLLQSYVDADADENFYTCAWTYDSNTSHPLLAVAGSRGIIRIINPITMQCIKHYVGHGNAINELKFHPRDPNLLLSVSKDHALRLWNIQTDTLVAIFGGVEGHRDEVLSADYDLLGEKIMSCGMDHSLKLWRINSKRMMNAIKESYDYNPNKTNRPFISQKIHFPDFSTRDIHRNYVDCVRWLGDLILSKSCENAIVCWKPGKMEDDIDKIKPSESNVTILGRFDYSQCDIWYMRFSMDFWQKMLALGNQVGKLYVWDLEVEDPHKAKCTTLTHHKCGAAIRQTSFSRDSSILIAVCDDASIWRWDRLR
UniProt Q15022, 2-739 partner limits assumed: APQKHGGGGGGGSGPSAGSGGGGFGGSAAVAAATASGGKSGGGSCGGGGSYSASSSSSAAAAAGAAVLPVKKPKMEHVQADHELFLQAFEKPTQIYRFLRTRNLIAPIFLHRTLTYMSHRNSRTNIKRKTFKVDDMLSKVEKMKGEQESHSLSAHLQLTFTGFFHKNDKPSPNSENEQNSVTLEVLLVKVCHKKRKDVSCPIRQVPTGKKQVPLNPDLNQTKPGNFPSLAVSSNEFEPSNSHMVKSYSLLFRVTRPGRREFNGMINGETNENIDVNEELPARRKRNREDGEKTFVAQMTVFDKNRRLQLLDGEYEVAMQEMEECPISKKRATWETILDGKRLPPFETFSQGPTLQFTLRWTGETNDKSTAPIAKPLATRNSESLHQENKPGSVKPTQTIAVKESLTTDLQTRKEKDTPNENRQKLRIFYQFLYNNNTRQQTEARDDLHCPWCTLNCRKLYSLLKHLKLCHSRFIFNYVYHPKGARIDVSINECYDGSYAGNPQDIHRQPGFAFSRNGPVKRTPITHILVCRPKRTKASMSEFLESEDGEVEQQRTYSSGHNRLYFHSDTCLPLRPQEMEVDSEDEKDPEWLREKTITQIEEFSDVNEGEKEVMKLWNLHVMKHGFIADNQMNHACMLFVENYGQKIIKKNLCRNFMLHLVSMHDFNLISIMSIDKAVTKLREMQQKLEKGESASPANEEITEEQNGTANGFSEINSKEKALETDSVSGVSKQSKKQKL

In patent publication US20260184697A1, “EZH1/2 INHIBITOR, PREPARATION THEREOF, AND USE THEREOF IN ANTI-TUMOR THERAPY” (JIANGSU TASLY DIYI PHARMACEUTICAL CO., LTD., priority 2022, published 2026):

Assays:
EZH2/SUZ/EED = EZH2/SUZ/EED (Homo sapiens, UniProt Q15910); test: Inhibitory effect on EZH2 by the MTase-Glo method (Test Example 1); assay type: biochemical; conditions: read-out: Test Example 1 WT EZH2 IC50, EZH2/SUZ/EED 6.25 nM, H3 peptide 10 μM, SAM 3 μM, 30° C. 3 h
EZH1/SUZ/EED = EZH1/SUZ/EED (Homo sapiens, UniProt Q92800); test: Inhibitory effect on EZH1 by the MTase-Glo method (Test Example 1); assay type: biochemical; conditions: read-out: Test Example 1 WT EZH1 IC50, EZH1/SUZ/EED 25 nM, H3 peptide 10 μM, SAM 3 μM, 30° C. 3 h
[1] = test system: H3K27Me3 methylation in Karpas-422 cells; test: H3K27Me3 cell method, inhibition of H3K27Me3 methylation (Test Example 2); assay type: cell-based, human; conditions: read-out: Test Example 2 H3K27Me3 inhibition (Karpas-422) IC50, 3 days incubation, HTRF signal
Karpas-422 cells = test: Anti-proliferation by Cell Titer-Glo method (Test Example 3); assay type: cell-based, human; conditions: read-out: Test Example 3 Karpas-422 cell anti-proliferation IC50, Cell-Titer Glo on the eleventh day

Row | SMILES | IC50 (EZH2/SUZ/EED) | IC50 (EZH1/SUZ/EED) | IC50 [1] | IC50 (Karpas-422 cells)
1 | CSc1cc(C)[nH]c(=O)c1CNC(=O)c1cc(Cl)c2c(c1C)O[C@@H](C1CCN(CC3CC3)CC1)CO2 | 3.3 nM | 17.9 nM | 23.3 nM | –
2 | COc1cc(C)[nH]c(=O)c1CNC(=O)c1cc(Cl)c2c(c1C)O[C@@H]([C@H]1CC[C@@H](N(C)CCOCCF)CC1)CO2 | 6.2 nM | – | 39.4 nM | 26.1 nM
